# Values quoted from earlier work, collected in patent US6696077B2, “Silver alginate foam compositions” (priority 2001, dated 2004).
# Conditions: Ag2O; printed with superscript 20
substance,measurement,value
silver oxide,solubility in aqueous solutions,0.0013 parts per hundred
